Assay results published in patent US20230218577A1, “USE OF HEAT SHOCK PROTEIN INHIBITORS FOR THE TREATMENT OF NEURODEVELOPMENTAL DISORDERS” (The Children's Medical Center Corporation, priority 2020, published 2023).

Tested on: mTORC1 activity (pS6) in Tsc2-sh hippocampal neurons
Test: mTORC1 high-content screen (mTORC1^HCA) with the Biomol collection library
[1] = Z-score of percent GFP+pS6+ neurons in compound-treated Tsc2-knockdown wells, DIV20, Biomol library, replica 1
[2] = Z-score of percent GFP+pS6+ neurons in compound-treated Tsc2-knockdown wells, DIV20, Biomol library, replica 2
[3] = Z-score of percent GFP+pS6+ neurons in compound-treated Tsc2-knockdown wells, DIV20, Biomol library screen, replica 1
[4] = Z-score of percent GFP+pS6+ neurons in compound-treated Tsc2-knockdown wells, DIV20, Biomol library screen, replica 2

Compound	T2 Zscore (Replica 1)	T2 Zscore (Replica 2)	further results
C[C@H]1CCC/C=C/[C@@H]2C[C@H](O)C[C@H]2[C@H](O)/C=C/C(=O)O1 [Brefeldin A]	1.168	−0.1747	–
CCCCC/C=C\C/C=C\C/C=C\C/C=C\CCCCCC(=O)NCCO [Anandamide (22:4,n-6)]	0.7562	0.2051	–
O=C1C2CCN(CC2)C1(CO)CO [PRIMA-1]	0.6315	0.9219	–
CS(=O)(=O)O.Cc1c(C(=O)c2cccc3ccccc23)c2cccc3c2n1[C@H](CN1CCOCC1)CO3 [WIN 55,212-2 mesylate]	1.287	1.96	–
CCCC(=O)Nc1nc2c(ncn2C2O[C@H]3COP(=O)(O)O[C@@H]3[C@@H]2OC(=O)CCC)c(=O)[nH]1 (stereo partly drawn) [Dibutyrylcyclic GMP]	−0.05631	−0.3109	–
CC(C)=CC[C@@H](O)C1=CC(=O)c2c(O)ccc(O)c2C1=O [Shikonin]	0.2281	1.574	–
CCCNC(=O)[C@H]1O[C@@H]1C(=O)N[C@H](C(=O)N1CCC[C@H]1C(=O)OC)[C@@H](C)CC [CA-074-Me]	1.644	0.9259	–
COc1cc(-c2ccc(=O)[nH]n2)ccc1OC(F)F [Zardaverine]	–	–	T2 Zscore (Replica 1) [1]: 0.7329; T2 Zscore (Replica 2) [2]: 1.771
CC(C)C[C@@H](/C=C/S(C)(=O)=O)NC(=O)[C@H](CC(C)C)NC(=O)[C@H](CC(C)C)NC(=O)OCc1ccccc1 [Z-Leu3-VS]	−0.2626	0.8832	–
CCCCC/C=C\C/C=C\CCCCCCCCCC(=O)O [Eicosadienoic acid (20:2 n-6)]	−0.2059	−1.688	–
CC(C)CC(=O)N[C@H](C(=O)N[C@H](C(=O)N[C@@H](CC(C)C)[C@@H](O)CC(=O)N[C@@H](C)C(=O)N[C@@H](CC(C)C)[C@@H](O)CC(=O)O)C(C)C)C(C)C [Pepstatin] (Isovaleryl-VV[Sta]A[Sta]-OH)	−0.4556	−0.5908	–
CN(Cc1cnc2nc(N)nc(N)c2n1)c1ccc(C(=O)N[C@@H](CCC(=O)O)C(=O)O)cc1 [Methotrexate]	–	–	T2 Zscore (Replica 1) [1]: 1.222; T2 Zscore (Replica 2) [2]: 0.6112
CCCCC[C@H](O)/C=C/C=C\C/C=C\C/C=C\CCCC(=O)O [15(S)-HETE]	−0.8769	−0.1922	–
Cc1c2oc3c(C)ccc(C(=O)N[C@@H]4C(=O)N[C@H](C(C)C)C(=O)N5CCC[C@H]5C(=O)N(C)CC(=O)N(C)[C@@H](C(C)C)C(=O)O[C@@H]4C)c3nc-2c(C(=O)N[C@@H]2C(=O)N[C@H](C(C)C)C(=O)N3CCC[C@H]3C(=O)N(C)CC(=O)N(C)[C@@H](C(C)C)C(=O)O[C@@H]2C)c(N)c1=O [Actinomycin D] (I: T[dV]P[Sar][NMeV] / II: T[dV]P[Sar][NMeV]; ester I:1-I:C, II:1-II:C; linker I:N-II:N via Actinocin(9to1))	−1.647	−1.523	–
Calphostin C	−2.289	−1.269	–
CC(=O)c1c(O)c(C)c(O)c(Cc2c(O)c3c(c(C(=O)/C=C/c4ccccc4)c2O)OC(C)(C)C=C3)c1O [Rottierin]	−0.3381	−0.8716	–
CCCCCCCCCCCCCC(=O)N[C@@H](C)[C@H](O)c1ccccc1 [L-erythro-MAPP]	0.698	−0.1457	–
COc1ccc(CCN(C)CCc2ccc(OC)c(OC)c2)cc1OC [YS035]	0.7096	0.4072	–
CC/C=C\C/C=C\C/C=C\CCCCCCCCCCCC(=O)O [Docosatrienoic acid (22:3 n-3)]	0.441	0.644	–
C=C1[C@@H](C)[C@H]2[C@H](Cc3ccccc3)NC(=O)[C@]23[C@H](OC(C)=O)/C=C/[C@@](C)(O)C(=O)[C@@H](C)C/C=C/[C@H]3[C@@H]1O [Cytochalasin D]	0.7319	0.02458	–
COc1cccc(-c2cc(=O)c3ccccc3o2)c1N [PD 98059]	−0.4787	−0.3382	–
Cyclo [Cyclo [Arg-Gly-Asp-D-Phe-Val]]	–	–	T2 Zscore (Replica 1) [1]: 0.6748; T2 Zscore (Replica 2) [2]: 1.273
CC1=C(/C=C/C(C)=C/C=C/C(C)=C/C(=O)O)C(C)(C)CCC1 [All trans retinoic acid]	–	–	T2 Zscore (Replica 1) [3]: −0.2511; T2 Zscore (Replica 2) [4]: 0.7501
CCCCC[C@H](O)/C=C/[C@@H]1[C@@H](CC(=O)CCCCC(=O)O)[C@@H](O)C[C@H]1O [6-Keto-prostaglandin F1a]	−1.083	−0.1527	–
CCCCCCCCCCCCCCCCOC[C@@H](O)COP(=O)([O-])OCC[N+](C)(C)C [Lyso-PAF C16]	−0.3675	−0.0761	–
C[C@@H](N)[C@H]1CC[C@H](C(=O)Nc2ccncc2)CC1 [Y-27632]	–	–	T2 Zscore (Replica 1) [3]: 0.4321; T2 Zscore (Replica 2) [4]: −0.3925
N#C/C(=C\c1ccc(O)c(O)c1)C(N)=S [AG213 (Tyrphostin 47)]	0.5831	0.9203	–

Compound	T2 Zscore (Replica 1)	T2 Zscore (Replica 2)	further results
CCCCC/C=C\C/C=C\C/C=C\C=C\[C@H](CCCC(=O)O)OO [5(S)-HPETE]	1.034	1.732	–
CC(C)(c1ccc(OCC2CO2)cc1)c1ccc(OCC2CO2)cc1 (stereo not drawn) [BADGE]	0.7862	−0.784	–
O=C(O)c1cc(N(Cc2ccccc2O)Cc2cc(O)ccc2O)ccc1O [Lavendustin A]	0.5301	−0.1145	–
CCCCCCCCCCCCCCCC(=O)OC[C@H](COP(=O)(O)O)OC(=O)CCCCCCCCCCCCCCC [Dipalmitoylphosphatidic acid]	−1.633	0.5306	–
OCCN(CCO)c1nc(N2CCCCC2)c2nc(N(CCO)CCO)nc(N3CCCCC3)c2n1 [Dipyridamole]	–	–	T2 Zscore (Replica 1) [3]: 0.4593; T2 Zscore (Replica 2) [4]: −0.1679
COC(=O)c1c(C)[nH]c(C)c1C(=O)c1ccccc1Cc1ccccc1 [FPL-64176]	0.2513	−0.7609	–
CCCCC/C=C\C/C=C\C/C=C\C=C\[C@@H](O)CCCC(=O)O [5(S)-HETE]	0.2342	−0.2258	–
CC[C@]1(O)C[C@@H]2CN(CCc3c([nH]c4ccccc34)[C@@](C(=O)OC)(c3cc4c(cc3OC)N(C)[C@H]3[C@@](O)(C(=O)OC)[C@H](OC(C)=O)[C@]5(CC)C=CCN6CC[C@]43[C@@H]65)C2)C1 [Vinblastine]	–	–	T2 Zscore (Replica 1) [1]: 1.076; T2 Zscore (Replica 2) [2]: 1.713
N#Cc1c(-c2ccccc2)no[n+]1[O-] [Furoxan]	–	–	T2 Zscore (Replica 1) [3]: 0.7022; T2 Zscore (Replica 2) [4]: −0.08245
Tunicamycin	−0.9103	−0.2481	–
CC(C)(O)[C@H]1O[C@H]2CC[C@@]3(C)[C@@](O)(CC[C@H]4Cc5c([nH]c6ccccc56)[C@@]43C)C2=CC1=O [Paxilline]	0.6003	−0.3283	–
CC1=C(C)C(=O)C(CCCCC#CCCCC#CCO)=C(C)C1=O [AA-861]	–	–	T2 Zscore (Replica 1) [3]: 0.5924; T2 Zscore (Replica 2) [4]: 0.5603
CC(N)=NCc1cccc(CN)c1.Cl.Cl [1400W•2HCl]	−0.5593	−0.3175	–
CCCCC[C@H](O)/C=C/[C@H]1[C@H](O)CC(=O)[C@@H]1C/C=C\CCCC(=O)O [Prostaglandin E2]	–	–	T2 Zscore (Replica 1) [1]: 0.6938; T2 Zscore (Replica 2) [2]: 1.301
Nc1nc2c(nc(Br)n2[C@@H]2O[C@@H]3COP(=O)(O)O[C@H]3[C@H]2O)c(=O)[nH]1 [8-Bromo-cGMP]	0.1414	0.4611	–
CN(C)CCCn1cc(C2=C(c3c[nH]c4ccccc34)C(=O)NC2=O)c2ccccc21 [GF-109203X]	0.8424	−0.07521	–
BW-B 70C	0.8191	0.6147	–
CCCCC/C=C\C\C=C/C=C/C=C/[C@@H](SC[C@H](N)C(=O)O)[C@@H](O)CCCC(=O)O [Leukotriene E4]	–	–	T2 Zscore (Replica 1) [1]: 1.061; T2 Zscore (Replica 2) [2]: 0.8339
CCCC(=O)Nc1ncnc2c1ncn2[C@@H]1O[C@@H]2COP(=O)(O)O[C@H]2[C@H]1OC(=O)CCC [Dibutyrylcyclic AMP]	–	–	T2 Zscore (Replica 1) [3]: 0.1878; T2 Zscore (Replica 2) [4]: 1.036
COCc1nc2c([nH]1)c(=O)n(C)c(=O)n2CC(C)C [8-methoxymethyl-IBMX]	0.6281	0.7969	–
CO[C@@]12[C@H](COC(N)=O)C3=C(C(=O)C(C)=C(N)C3=O)N1C[C@@H]1N[C@@H]12 [Mitomycin C]	−0.3674	−0.7225	–
OC[C@H]1NC[C@H](O)[C@@H](O)[C@@H]1O [1-Deoxynojirimycin]	–	–	T2 Zscore (Replica 1) [3]: 0.4012; T2 Zscore (Replica 2) [4]: −0.101
O=C(O)c1ccccc1Nc1cccc(C(F)(F)F)c1 [Flufenamic acid]	–	–	T2 Zscore (Replica 1) [3]: 0.8655; T2 Zscore (Replica 2) [4]: 0.1241
Cc1ccc(S(=O)(=O)/C=C/C#N)cc1 [BAY 11-7082]	−1.185	−0.6295	–
CCCCC[C@H](O)/C=C/[C@@H]1[C@@H](C/C=C\CCCC(=O)O)[C@H]2CO[C@@H]1C2 [U-46619]	0.8892	−0.9246	–
CC1(O)CC23CC(O)C4(O)C(CC(O)C4(C)C)C(C)(O)C2CCC1C3O (stereo not drawn) [Grayanotoxin III]	0.9767	−0.01702	–
CC1=C(/C=C/C(C)=C/C=C/C(C)=C\C(=O)O)C(C)(C)CCC1 [13-cis retinoic acid]	–	–	T2 Zscore (Replica 1) [3]: 0.296; T2 Zscore (Replica 2) [4]: −0.01693

Read-outs that look alike come from different tables or passages of the source. Numbered stars: 1 amine (or outer) side, 2 acyl side, 3 side chain; on linkers, the order of the positions; unused ones are H or OH. Bridge positions count the residues as written; N and C are the ends. Square brackets hold non-standard residues; d marks the D form. Peptide text beside a SMILES is read from it. I, II: the chains in the order shown. * marks the point of attachment. Actinocin(9to1) = Cc1c2oc3c(C)ccc(C(=O)[*:1])c3nc-2c(C(=O)[*:2])c(N)c1=O; Sta = CC(C)C[C@H](N)[C@@H](O)CC(=O)O; NMeV = CN[C@H](C(=O)O)C(C)C; Isovaleryl = CC(C)CC(=O)*; Sar = CNCC(=O)O
